pIC50: −log10 of the molar value.
Target: C-Raf FL (full-length C-Raf protein, Y340E and Y341E activating mutations) (Homo sapiens (Human), UniProt P04049, Y340E/Y341E)
Assay type: biochemical
Details: AlphaScreen, 60 min pre-incubation, reaction 1 hour at room temperature; read-out: c-Raf FL IC-50

Protein sequences, listed by entry. Tags and fused reporters are not part of them.
UniProt P04049, whole entry Y340E/Y341E: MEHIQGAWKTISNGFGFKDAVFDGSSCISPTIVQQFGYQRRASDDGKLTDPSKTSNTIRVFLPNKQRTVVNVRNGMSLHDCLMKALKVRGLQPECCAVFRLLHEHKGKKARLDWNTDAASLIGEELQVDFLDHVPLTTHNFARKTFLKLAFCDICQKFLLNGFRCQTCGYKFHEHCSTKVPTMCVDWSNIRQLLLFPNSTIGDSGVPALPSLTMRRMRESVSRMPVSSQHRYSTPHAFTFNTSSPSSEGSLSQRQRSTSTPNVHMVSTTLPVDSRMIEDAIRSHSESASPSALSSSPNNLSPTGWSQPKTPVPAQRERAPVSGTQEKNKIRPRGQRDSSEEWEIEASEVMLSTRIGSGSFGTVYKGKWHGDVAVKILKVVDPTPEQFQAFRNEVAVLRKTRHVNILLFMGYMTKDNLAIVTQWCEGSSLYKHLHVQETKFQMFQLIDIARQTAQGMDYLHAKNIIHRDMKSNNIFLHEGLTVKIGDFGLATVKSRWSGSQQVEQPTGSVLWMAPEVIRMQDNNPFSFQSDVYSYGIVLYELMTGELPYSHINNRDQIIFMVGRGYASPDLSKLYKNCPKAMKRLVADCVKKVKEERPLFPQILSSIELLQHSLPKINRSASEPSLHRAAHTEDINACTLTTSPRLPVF

Row | Structure (SMILES) | pIC50
1 | CCC(F)(F)c1cc(C(=O)Nc2cnc(C)c(-c3cc(NCCO)nc(N4CCOCC4)c3)c2)ccn1 [Example 1058, 2-(1,1-difluoropropyl)-N-(2′-((2-hydroxyethyl)amino)-2-methyl-6′-morpholino-[3,4′-bipyridin]-5-yl)isonicotinamide] | 8.75
2 | Cc1ccc(NC(=O)c2ccnc(C(C)(C)C#N)c2)cc1-c1cc(N2CCOCC2)nc(N2CC(O)C2)c1 [Example 1059, 2-(2-cyanopropan-2-yl)-N-(3-(2-(3-hydroxyazetidin-1-yl)-6-morpholinopyridin-4-yl)-4-methylphenyl)isonicotinamide] | 9.07
3 | Cc1ccc(NC(=O)c2ccnc(C(F)(F)F)c2)cc1-c1cc(N2CCOCC2)nc(N2CC(O)C2)c1 [Example 1060, N-(3-(2-(3-hydroxyazetidin-1-yl)-6-morpholinopyridin-4-yl)-4-methylphenyl)-2-(trifluoromethyl)isonicotinamide] | 9.02
4 | CCn1cc(C(=O)Nc2ccc(C)c(-c3cc(N4CCOCC4)nc(N4CC(O)C4)c3)c2)cc(C(F)(F)F)c1=O [Example 1061, 1-ethyl-N-(3-(2-(3-hydroxyazetidin-1-yl)-6-morpholinopyridin-4-yl)-4-methylphenyl)-6-oxo-5-(trifluoromethyl)-1,6-dihydropyridine-3-carboxamide] | 9.19
5 | Cc1ccc(NC(=O)c2cccc(C(F)(F)F)c2)cc1-c1cc(NCC(C)(C)O)nc(N2CCOCC2)c1 [Example 1062, N-(3-(2-((2-hydroxy-2-methylpropyl)amino)-6-morpholinopyridin-4-yl)-4-methylphenyl)-3-(trifluoromethyl)benzamide] | 9.60
6 | Cc1ccc(NC(=O)c2cccc(C(F)(F)F)c2)cc1-c1cc(NCC(O)C(F)(F)F)nc(N2CCOCC2)c1 (centres unmarked) [Example 1063, N-(4-methyl-3-(2-morpholino-6-((3,3,3-trifluoro-2-hydroxypropyl)amino)pyridin-4-yl)phenyl)-3-(trifluoromethyl)benzamide] | 9.60
7 | Cc1ccc(NC(=O)c2cccc(C(F)(F)F)c2)cc1-c1cc(N2CCOCC2)nc(N2C[C@H](O)CC2=O)c1 [Example 1064, (R)—N-(3-(2-(4-hydroxy-2-oxopyrrolidin-1-yl)-6-morpholinopyridin-4-yl)-4-methylphenyl)-3-(trifluoromethyl)benzamide] | 9.74
8 | Cc1ccc(NC(=O)c2cccc(C(F)(F)F)c2)cc1-c1cc(NC(=O)C(C)O)nc(N2CCOCC2)c1 (centres unmarked) [Example 1066, N-(3-(2-(2-hydroxypropanamido)-6-morpholinopyridin-4-yl)-4-methylphenyl)-3-(trifluoromethyl)benzamide] | 9.68
9 | Cc1ccc(NC(=O)c2ccnc(C(F)F)c2)cc1-c1cc(N2CCOCC2)nc(N2CC(O)C2)c1 [Example 1067, 2-(difluoromethyl)-N-(3-(2-(3-hydroxyazetidin-1-yl)-6-morpholinopyridin-4-yl)-4-methylphenyl)isonicotinamide] | 9.57
10 | Cc1ccc(NC(=O)c2ccnc(C3CC3)c2)cc1-c1cc(N2CCOCC2)nc(N2CC(O)C2)c1 [Example 1068, 2-cyclopropyl-N-(3-(2-(3-hydroxyazetidin-1-yl)-6-morpholinopyridin-4-yl)-4-methylphenyl)isonicotinamide] | 9.85
11 | Cc1ccc(NC(=O)c2ccnc(C(C)C)c2)cc1-c1cc(N2CCOCC2)nc(N2CC(O)C2)c1 [Example 1069, N-(3-(2-(3-hydroxyazetidin-1-yl)-6-morpholinopyridin-4-yl)-4-methylphenyl)-2-isopropylisonicotinamide] | 9.28
12 | Cc1ccc(NC(=O)c2cnnc(C(F)(F)F)c2)cc1-c1cc(N2CCOCC2)nc(N2CC(O)C2)c1 [Example 1070, N-(3-(2-(3-hydroxyazetidin-1-yl)-6-morpholinopyridin-4-yl)-4-methylphenyl)-6-(trifluoromethyl)pyridazine-4-carboxamide] | 9.14
13 | Cc1ccc(NC(=O)c2ccnc(C3(C#N)CC3)c2)cc1-c1cc(N2CCOCC2)nc(N2CC(O)C2)c1 [Example 1071, 2-(1-cyanocyclopropyl)-N-(3-(2-(3-hydroxyazetidin-1-yl)-6-morpholinopyridin-4-yl)-4-methylphenyl)isonicotinamide] | 9.07
14 | Cc1ccc(NC(=O)c2ccnc(C(F)F)c2)cc1-c1cc(N2CCOCC2)nc(N2CC(C)(O)C2)c1 [Example 1072, 2-(difluoromethyl)-N-(3-(2-(3-hydroxy-3-methylazetidin-1-yl)-6-morpholinopyridin-4-yl)-4-methylphenyl)isonicotinamide] | 9.39
15 | Cc1ccc(NC(=O)c2cnnc(C(F)(F)F)c2)cc1-c1cc(N2CCOCC2)nc(N2CC(C)(O)C2)c1 [Example 1073, N-(3-(2-(3-hydroxy-3-methylazetidin-1-yl)-6-morpholinopyridin-4-yl)-4-methylphenyl)-6-(trifluoromethyl)pyridazine-4-carboxamide] | 9.26
16 | Cc1ccc(NC(=O)c2cccc(S(C)(=O)=O)c2)cc1-c1cc(N2CCOCC2)nc(N2CC(C)(O)C2)c1 [Example 1074, N-(3-(2-(3-hydroxy-3-methylazetidin-1-yl)-6-morpholinopyridin-4-yl)-4-methylphenyl)-3-(methylsulfonyl)benzamide] | 9.24
17 | Cc1ccc(NC(=O)c2cnncc2C(F)F)cc1-c1cc(N2CCOCC2)nc(N2CC(O)C2)c1 [Example 1075, 5-(difluoromethyl)-N-(3-(2-(3-hydroxyazetidin-1-yl)-6-morpholinopyridin-4-yl)-4-methylphenyl)pyridazine-4-carboxamide] | 6.92
18 | Cc1ccc(NC(=O)c2cnnc(C3CC3)c2)cc1-c1cc(N2CCOCC2)nc(N2CC(C)(O)C2)c1 [Example 1076, 6-cyclopropyl-N-(3-(2-(3-hydroxy-3-methylazetidin-1-yl)-6-morpholinopyridin-4-yl)-4-methylphenyl)pyridazine-4-carboxamide] | 9.41
19 | Cc1ccc(NC(=O)c2cccc(C(F)F)c2)cc1-c1cc(N2CCOCC2)nc(N2CC(O)C2)c1 [Example 1077, 3-(difluoromethyl)-N-(3-(2-(3-hydroxyazetidin-1-yl)-6-morpholinopyridin-4-yl)-4-methylphenyl)benzamide] | 9.34
20 | Cc1ccc(NC(=O)c2ccnc(C(C)(F)F)c2)cc1-c1cc(N2CCOCC2)nc(N2CC(O)C2)c1 [Example 1078, 2-(1,1-difluoroethyl)-N-(3-(2-(3-hydroxyazetidin-1-yl)-6-morpholinopyridin-4-yl)-4-methylphenyl)isonicotinamide] | 9.10
21 | Cc1ncc(NC(=O)c2cccc(C(F)F)c2)cc1-c1cc(N2CCOCC2)nc(N2CC(O)C2)c1 [Example 1079, 3-(difluoromethyl)-N-(2′-(3-hydroxyazetidin-1-yl)-2-methyl-6′-morpholino-[3,4′-bipyridin]-5-yl)benzamide] | 8.93
22 | Cc1ncc(NC(=O)c2ccnc(C(C)(F)F)c2)cc1-c1cc(N2CCOCC2)nc(N2CC(O)C2)c1 [Example 1080, 2-(1,1-difluoroethyl)-N-(2′-(3-hydroxyazetidin-1-yl)-2-methyl-6′-morpholino-[3,4′-bipyridin]-5-yl)isonicotinamide] | 8.62
23 | Cc1ncc(NC(=O)c2ccnc(C(C)C)c2)cc1-c1cc(N2CCOCC2)nc(N2CC(O)C2)c1 [Example 1081, N-(2′-(3-hydroxyazetidin-1-yl)-2-methyl-6′-morpholino-[3,4′-bipyridin]-5-yl)-2-isopropylisonicotinamide] | 8.70

Source: patent publication US9694016B2 (Novartis AG, priority 2013, dated 2017)
